Measurements: PMC4543428 (European journal of pharmacology, 2015)

Protein sequences, listed by entry. Tags and fused reporters are not part of them.
UniProt O55242, whole entry: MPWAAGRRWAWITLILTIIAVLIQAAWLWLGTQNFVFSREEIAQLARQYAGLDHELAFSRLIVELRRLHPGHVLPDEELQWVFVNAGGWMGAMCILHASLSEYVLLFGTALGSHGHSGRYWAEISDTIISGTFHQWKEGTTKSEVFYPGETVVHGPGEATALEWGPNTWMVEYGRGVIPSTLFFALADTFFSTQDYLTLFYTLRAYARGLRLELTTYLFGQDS

Tests used:
sigma1 receptor = sigma1 receptor (Mus musculus, UniProt O55242); settings: 1.0 nM [3H](+)-pentazocine; 6 h; 37 °C; mouse lung membranes
sigma2 receptor = biological target: T1, sigma2 receptor (Mus musculus, UniProt Q8VD00); test: Sigma2 receptor competition binding against [3H]DTG /; settings: mouse lung membranes; sigma2 Ki / sigma1 Ki
T1 sequence (Q8VD00 1-176): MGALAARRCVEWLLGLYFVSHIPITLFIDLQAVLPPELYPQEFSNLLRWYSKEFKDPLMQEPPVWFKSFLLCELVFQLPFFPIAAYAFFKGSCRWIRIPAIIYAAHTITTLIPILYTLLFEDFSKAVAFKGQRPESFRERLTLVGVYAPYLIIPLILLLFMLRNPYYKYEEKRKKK

Substance: (−)-cocaine hydrochloride
- Sigma1 nH (pseudo-Hill slope) (sigma1 receptor): 1.18 ± 0.19
- Selectivity Ki Ratio σ2/σ1 (sigma2 receptor): 30
